These results are taken from PMC8165550, “Molecular basis for diaryldiamine selectivity and competition with tRNA in a type 2 methionyl-tRNA synthetase from a Gram-negative bacterium” (The Journal of Biological Chemistry, 2021).

The target of experiment [1] is T1, XcMetRS Y237L/P257L mutant (Xanthomonas citri pv. citri, UniProt Q8PMP0, P257L/Y237L). It counts as binding. Set-up: His tag with TEV site (from pET28-TEV vector) (N); made in house; host or cells: E. coli BL21(DE3).
For experiment [2], the target named is T2, XcMetRS Y237L mutant (Xanthomonas citri pv. citri, UniProt Q8PMP0, Y237L). The format is binding. Further details: His tag with TEV site (from pET28-TEV vector) (N); made in house; host or cells: E. coli BL21(DE3). Particulars: for Tm: Y237L; for Tm increase: Y237L mutant, ligand alone.
Experiment [3] addresses T2, XcMetRS Y237L mutant. It counts as biochemical. Set-up: His tag with TEV site (from pET28-TEV vector) (N); made in house; host or cells: E. coli BL21(DE3).
The target of experiment [4] is T1, XcMetRS Y237L/P257L mutant. It counts as biochemical. Further details: His tag with TEV site (from pET28-TEV vector) (N); made in house; host or cells: E. coli BL21(DE3).
In experiment [5] the target is T3, XcMetRS P257L mutant (Xanthomonas citri pv. citri, UniProt Q8PMP0, P257L). It counts as biochemical. Set-up: His tag with TEV site (from pET28-TEV vector) (N); made in house; host or cells: E. coli BL21(DE3).
The target of experiment [6] is T3, XcMetRS P257L mutant. The format is binding. Further details: His tag with TEV site (from pET28-TEV vector) (N); made in house; host or cells: E. coli BL21(DE3).
In experiment [7] the target is T3, XcMetRS P257L mutant.
The target of experiment [8] is T2, XcMetRS Y237L mutant.
Experiment [9] concerns the target T1, XcMetRS Y237L/P257L mutant.
Where [10] appears, read: read-out: KM^app, L-Met varied, ATP 2 mM.

The structures appear in SMILES notation. Read-outs that look alike come from different tables or passages of the source.

Consider `Nc1ncnc2c1ncn2[C@@H]1O[C@H](COP(=O)(O)OP(=O)(O)OP(=O)(O)O)[C@@H](O)[C@H]1O` [ATP], for which the results for the Tm (in experiment [1] (ligand 5 mM); at XcMetRS Y237L mutant [2] (ligand 5 mM); on XcMetRS P257L mutant [6] (ligand 5 mM)) were 39,3 ± 0,3 ^oC, 32,3 ± 0,2 ^oC and 58,7 ± 0,3 ^oC, respectively. In addition, the turnover number (kcat) (usually the number of substrate molecules converted per active site and unit of time at saturation) on XcMetRS Y237L mutant [3] (ATP as varied substrate) turned out to be 0.0035 ± 0.00017 s⁻¹; in [4] (ATP as varied substrate), 0.0338 ± 0.0013 s⁻¹; on XcMetRS P257L mutant [5] (ATP as varied substrate) it was 0.0663 ± 0.00367 s⁻¹. Besides, the “K’” value on XcMetRS Y237L mutant [3] (ATP varied, L-Met 200 μM) is recorded as 1.16 ± 0.26 mM; in experiment [4] (ATP varied, L-Met 200 μM), 1.81 ± 0.29 mM; at XcMetRS P257L mutant [5] (ATP varied, L-Met 200 μM), 2.43 ± 0.30 mM. In addition, at XcMetRS P257L mutant [5] (ATP varied), the “h (Hill slope)” value came out at 1.6.

On to `CSCC[C@H](N)C(=O)O` [L-Met, L-methionine], for which the Tm is 47,4 ± 0,1 ^oC in experiment [1] (ligand 5 mM), 34,1 ± 0,7 ^oC on XcMetRS Y237L mutant [2] (ligand 5 mM) and 64,3 ± 0,1 ^oC on XcMetRS P257L mutant [6] (ligand 5 mM). For the same molecule, the kcat at XcMetRS Y237L mutant [3] (L-Met as varied substrate) was determined as 0.0012 ± 0.00017 s⁻¹; in experiment [4] (L-Met as varied substrate), 0.0582 ± 0.001 s⁻¹; at XcMetRS P257L mutant [5] (L-Met as varied substrate), 0.0302 ± 0.0005 s⁻¹. The results for the Michaelis constant (Km) (at XcMetRS Y237L mutant [3] (setting [10]); in experiment [4] (setting [10]); on XcMetRS P257L mutant [5] (setting [10])) were 23.5 ± 0.9 µM, 39 ± 2 µM and 21.8 ± 1.3 µM, respectively.

Regarding `O=c1cc(NCCCN[C@@H]2CCOc3c(Br)cc(Br)cc32)[nH]c2ccsc12` [REP3123], the Tm in [1] (ligand 25 µM) is listed as 35,4 ± 0,5 ^oC; in experiment [1] (ligand + ATP:Mg), 47,4 ± 0,1 ^oC; on XcMetRS Y237L mutant [2] (ligand 25 µM) it was 44,3 ± 1,6 ^oC; on XcMetRS Y237L mutant [2] (ligand + ATP:Mg), 47,3 ± 0,9 ^oC; at XcMetRS P257L mutant [6] (ligand 25 µM), 55,9 ± 0,1 ^oC; on XcMetRS P257L mutant [6] (ligand + ATP:Mg), 59 ± 0,1 ^oC. In addition, the Tm increase entry at XcMetRS Y237L mutant [2] is “approximately 14 °C”.

In the case of `C=C(F)c1sc(CNCCCNc2cc(O)c3ccccc3n2)c(C)c1Br` [REP8839], the Tm in [1] (ligand 25 µM) is 39,3 ± 0,3 ^oC; in experiment [1] (ligand + ATP:Mg), 42,6 ± 0,4 ^oC; at XcMetRS Y237L mutant [2] (ligand 25 µM) it was 56,1 ± 0,1 ^oC; at XcMetRS Y237L mutant [2] (ligand + ATP:Mg), 57,3 ± 0,5 ^oC; on XcMetRS P257L mutant [6] (ligand 25 µM), 55,1 ± 0,1 ^oC; on XcMetRS P257L mutant [6] (ligand + ATP:Mg) it was 58,3 ± 0,2 ^oC. Besides, the half-inhibitory concentration (IC50) (as a rule, the concentration that inhibits the measured activity by half) against XcMetRS P257L mutant [7] was greater than 100 µM; on XcMetRS P257L mutant [7] (P257L mutant, 30 μM L-Met, 5 mM ATP), “insensitive”; on XcMetRS Y237L mutant [8], 1.9 ± 0.2 µM; in experiment [9], 32.8 ± 2.7 µM. For the same molecule, the “IC50 fold lower than WT enzyme” value against XcMetRS Y237L mutant [8] (Y237L mutant vs WT) is reported as “approximately 10 fold”. Further, the Tm increase on XcMetRS Y237L mutant [2] was roughly 26 °C. In addition, in experiment [9] (Y237L/P257L mutant vs WT), the “IC50 fold higher than parental enzyme” value is given as roughly 2 fold.
